The values that follow are results of earlier work, collected in patent publication US20110200554A1, “THERAPEUTIC AGENT FOR HEPATITIS C” (priority 2008, published 2011).

For the data set the following is noted: human, permissible dose 800 mg/mm^2 per oral administration every 4 hours; cited from earlier work.

For the substance hydroxyurea [HU], the “blood HU level” value was 2480 µmol/L.
